From patent publication US5118791A, “Biologically active polypeptides based on transforming growth factor-β” (Genentech, Inc., priority 1991, dated 1992)

System: WI-38 human fibroblasts
Experiment: Stimulation of PGE2 production from IL-1 treated fibroblasts
Format: cell-based
Conditions: IL-1 treated WI-38 cells, overnight; conjugate and HSA diluted 1:10 and 1:20, dimer 100 and 50 μM; FIG. 2
Procedure: Three to four days before assay WI-38 human fibroblasts (from the American Type Culture Collection, Rockville, MD) were seeded in 96-well flat-bottom plates. On the day of the assay IL-1 was diluted to 2 u/ml in assay medium (modified Eagle's medium with 10% fetal bovine serum, L-glutamine, and penicillin/streptomycin (Gibco, Grand Island, NY)). Samples to be tested were diluted 1:1 with the IL-1. To each of duplicate wells of the WI-38 cells was added 100 μl of sample. The plates were incubated overnight at 37° C. with 5% carbon dioxide. Supernatant from each well was collected for assay of amount of PGE2 released. Thus, twenty μl of each supernatant was added to 80 μl of RIA assay buffer and the diluted supernatant was assayed for PGE2 according to the directions of the supplier (PGE2 RIA kit, DuPont NEN, cat. #NEK-020).

HSA control: human serum albumin alone processed in an identical manner, used as additional control
stimulation of PGE2 production from fibroblasts: inactive
